# T1: human lysophosphatidic acid receptor 1 (LPA1) (human, UniProt Q92633 2-364)
# T1 construct: human LPA1 gene (UniProtKB Q92633) in a modified pFastBac vector; C-terminal TEV site followed by EGFP-His10; also called LPA1-GFP; the receptor; source: Sf9 insect cells (baculovirus), purified (TALON resin, SEC) in the presence of ONO-0740556; not shown: Flag, N-terminal, kept; EGFP, C-terminal, cleaved; His10, C-terminal, cleaved
# T1 sequence: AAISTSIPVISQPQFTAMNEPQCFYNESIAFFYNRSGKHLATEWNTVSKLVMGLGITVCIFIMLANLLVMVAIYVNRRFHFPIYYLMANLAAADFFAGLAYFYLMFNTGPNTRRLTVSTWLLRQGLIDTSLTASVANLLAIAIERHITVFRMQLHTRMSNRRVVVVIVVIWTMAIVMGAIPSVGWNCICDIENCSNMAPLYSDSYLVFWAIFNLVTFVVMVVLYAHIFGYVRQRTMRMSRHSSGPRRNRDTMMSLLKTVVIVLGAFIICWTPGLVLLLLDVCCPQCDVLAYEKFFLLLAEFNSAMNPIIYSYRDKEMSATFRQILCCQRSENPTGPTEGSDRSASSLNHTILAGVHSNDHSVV
# B1: human Gαi1 subunit (natural protein)
# chain: MGCTLSAEDKAAVERSKMIDRNLREDGEKAAREVKLLLLGAGESGKSTIVKQMKIIHEAGYSEEECKQYKAVVYSNTIQSIIAIIRAMGRLKIDFGDSARADDARQLFVLAGAAEEGFMTAELAGVIKRLWKDSGVQACFNRSREYQLNDSAAYYLNDLDRIAQPNYIPTQQDVLRTRVKTTGIVETHFTFKDLHFKMFDVGGQRSERKKWIHCFEGVTAIIFCVALSDYDLVLAEDEEMNRMHESMKLFDSICNNKWFTDTSIILFLNKKDLFEEKIKKSPLTICYPEYAGSNTYEEAAAYIQCQFEDLNKRKDTKEIYTHFTCATDTKNVQFVFDAVTDVIIKNNLKDCGLF
# notes: WT human Gαi1 subunit; Stood in the assay as a subunit of the heterotrimer m2; also called Gi (α5-helix); source: Sf9 insect cells, co-expressed and purified as part of the Gi heterotrimer
# Target: T1, human lysophosphatidic acid receptor 1 …
# Assay: cryo-EM structure; LPA1, Gi heterotrimer and scFv16 purified separately and mixed (1.2 molar excess of Gi heterotrimer and scFv16) with TEV protease, apyrase and 10 µM ONO-0740556, 4 °C overnight; complex purified by M1 anti-Flag affinity and SEC in 20 mM Tris-HCl pH 8.0, 150 mM NaCl, 0.01% GDN, 1 µM ONO-0740556; stable state and four classes S1-S4
# Conditions: both partners purified
binder,measurement,value
B1,binding result,binds
